Results as given in patent US20020052313A1.

Protein sequences, listed by entry. Tags and fused reporters are not part of them. Residues count along the entry.
UniProt P04629, 33-796: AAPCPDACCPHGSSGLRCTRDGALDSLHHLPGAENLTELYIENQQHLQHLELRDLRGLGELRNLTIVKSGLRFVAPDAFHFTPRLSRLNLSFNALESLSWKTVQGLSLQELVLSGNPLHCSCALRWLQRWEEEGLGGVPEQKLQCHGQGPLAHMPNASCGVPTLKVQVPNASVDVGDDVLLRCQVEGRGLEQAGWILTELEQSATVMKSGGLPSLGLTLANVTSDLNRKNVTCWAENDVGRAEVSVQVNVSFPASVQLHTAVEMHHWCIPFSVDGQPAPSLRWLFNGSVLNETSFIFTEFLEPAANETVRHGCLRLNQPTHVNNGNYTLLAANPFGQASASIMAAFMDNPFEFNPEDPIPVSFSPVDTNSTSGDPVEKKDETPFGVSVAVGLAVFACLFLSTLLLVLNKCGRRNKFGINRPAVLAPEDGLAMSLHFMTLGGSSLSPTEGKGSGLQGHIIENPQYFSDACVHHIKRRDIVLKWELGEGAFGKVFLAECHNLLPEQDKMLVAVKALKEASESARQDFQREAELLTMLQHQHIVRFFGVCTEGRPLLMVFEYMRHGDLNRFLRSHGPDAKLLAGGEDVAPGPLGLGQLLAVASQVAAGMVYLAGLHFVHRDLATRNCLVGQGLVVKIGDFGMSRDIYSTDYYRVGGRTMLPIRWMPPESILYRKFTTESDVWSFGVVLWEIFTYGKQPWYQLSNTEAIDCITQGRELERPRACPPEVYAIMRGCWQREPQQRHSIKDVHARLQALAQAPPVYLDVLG

Assays:
[1] = biological target: p140^trk-A (human, on B lymphocytes) (human) (UniProt P04629); test: equilibrium binding of 125I-NGF, Scatchard analysis, small resting human B lymphocytes after acid (pH 3.0) treatment, high-affinity receptors
[2] = biological target: p140^trk-A (human, on B lymphocytes) (human) (UniProt P04629); test: equilibrium binding of 125I-NGF, Scatchard analysis, large (in vivo activated) human tonsil B cells, high-affinity class of sites

“^125I-NGF (Nerve Growth Factor, radio-iodinated, Amersham) (ligand)” was tested, and the Kd [1] was 0.17 nM, the binding sites/cell (binding sites/cell) [1] was 90000 and the Kd [2] was 0.03 nM. The binding sites/cell [2] was 30000 sites/cell.
